Among the data in BindingDB's records for PubMed 8301582 (Neuroscience Research Centre, 1994) are Ki values, retold here.

The chains behind the UniProt entries cited, without tags or fusion partners. A line that says so, or that is headed by a name, gives the form on record, which may keep a tag or linker.
UniProt P35462, as listed by the source: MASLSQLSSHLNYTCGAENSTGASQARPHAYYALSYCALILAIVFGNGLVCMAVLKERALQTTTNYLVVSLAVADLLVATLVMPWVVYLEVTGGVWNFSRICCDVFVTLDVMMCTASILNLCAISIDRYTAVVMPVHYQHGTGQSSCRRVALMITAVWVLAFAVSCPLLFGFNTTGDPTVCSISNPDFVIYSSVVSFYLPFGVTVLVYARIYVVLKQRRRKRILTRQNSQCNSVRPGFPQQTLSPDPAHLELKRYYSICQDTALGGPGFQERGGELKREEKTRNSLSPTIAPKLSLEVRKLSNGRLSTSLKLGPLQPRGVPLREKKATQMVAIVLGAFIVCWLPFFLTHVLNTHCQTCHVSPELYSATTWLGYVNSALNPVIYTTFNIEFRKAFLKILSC

SMILES strings stand for the structures.

This test deals with D(3) dopamine receptor (Homo sapiens, UniProt P35462).

For orientation: Ki means the equilibrium dissociation constant of an inhibitor or competing ligand from its target. High values mean a looser hold on the target, low ones a stronger hold on the target. As for `CCCN1CCCC(c2cccc(O)c2)C1` (stereo unspecified) [CAS_85976-54-1], the Ki was 0.34 µM.
